Molecular target: PAFAH2 (Mus musculus, UniProt Q8VDG7)
Assay: Gel-based competitive ABPP, mouse T-cell proteome in vitro
Type: biochemical
Conditions: read-out: IC50 for PAFAH2, 30 minutes at 37° C.

Amino acid sequences for entries named in this document (tags omitted).
UniProt Q8VDG7, whole entry: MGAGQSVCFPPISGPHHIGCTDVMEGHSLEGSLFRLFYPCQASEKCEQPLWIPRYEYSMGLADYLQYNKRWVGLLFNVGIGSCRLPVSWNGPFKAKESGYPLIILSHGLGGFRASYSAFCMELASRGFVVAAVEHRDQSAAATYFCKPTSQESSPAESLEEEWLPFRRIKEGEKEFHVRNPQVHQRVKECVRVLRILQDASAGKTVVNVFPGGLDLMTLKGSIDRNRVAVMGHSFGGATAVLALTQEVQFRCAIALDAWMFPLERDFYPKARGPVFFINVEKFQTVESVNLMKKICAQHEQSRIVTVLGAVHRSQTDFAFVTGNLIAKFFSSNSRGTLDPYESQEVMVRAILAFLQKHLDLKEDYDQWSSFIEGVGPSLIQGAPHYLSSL

O=C(N1CCCC1)n1cc(-c2ccc(-c3ccccc3)cc2)nn1
IC50: 6 nM

From patent publication US9108930B2, “N1- and N2-carbamoyl-1,2,3-triazole serine hydrolase inhibitors and methods” (The Scripps Research Institute, priority 2011, dated 2015)
